Values quoted from earlier work as cited in patent publication US20250154472A1, “Culture Medium for Expanding Breast Epithelial Stem Cells” (Koninklijke Nederlandse Akademie Van Wetenschappen, priority 2014, published 2025).

Target: T1, ALK5 (TGF-βR1) (Homo sapiens, UniProt P36897)
T1 sequence (P36897 34-503): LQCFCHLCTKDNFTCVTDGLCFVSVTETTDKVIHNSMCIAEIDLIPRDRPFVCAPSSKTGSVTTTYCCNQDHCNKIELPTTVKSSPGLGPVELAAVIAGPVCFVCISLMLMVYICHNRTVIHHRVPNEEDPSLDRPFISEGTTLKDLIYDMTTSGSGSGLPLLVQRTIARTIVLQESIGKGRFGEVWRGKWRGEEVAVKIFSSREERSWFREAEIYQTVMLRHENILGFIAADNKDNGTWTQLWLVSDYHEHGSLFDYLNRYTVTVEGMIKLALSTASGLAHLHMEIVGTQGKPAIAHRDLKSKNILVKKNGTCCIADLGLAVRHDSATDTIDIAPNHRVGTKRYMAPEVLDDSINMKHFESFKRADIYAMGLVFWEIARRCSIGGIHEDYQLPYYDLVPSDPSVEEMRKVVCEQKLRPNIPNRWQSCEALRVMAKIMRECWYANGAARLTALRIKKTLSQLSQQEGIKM
Settings: high concentrations; p38 MAP kinase inhibitor off-target; cited from earlier work

C[S+]([O-])c1ccc(-c2nc(-c3ccc(F)cc3)c(-c3ccncc3)[nH]2)cc1 (stereo not shown) [SB-203580]
concentration at which ALK5 is thought to be inhibited: ≥ 10 µM
